Test results taken from ChEMBL document CHEMBL4118237 (Bioorg Med Chem, 2018).

By UniProt entry, the sequences of proteins in these tests, tags left out.
UniProt P35372, whole entry: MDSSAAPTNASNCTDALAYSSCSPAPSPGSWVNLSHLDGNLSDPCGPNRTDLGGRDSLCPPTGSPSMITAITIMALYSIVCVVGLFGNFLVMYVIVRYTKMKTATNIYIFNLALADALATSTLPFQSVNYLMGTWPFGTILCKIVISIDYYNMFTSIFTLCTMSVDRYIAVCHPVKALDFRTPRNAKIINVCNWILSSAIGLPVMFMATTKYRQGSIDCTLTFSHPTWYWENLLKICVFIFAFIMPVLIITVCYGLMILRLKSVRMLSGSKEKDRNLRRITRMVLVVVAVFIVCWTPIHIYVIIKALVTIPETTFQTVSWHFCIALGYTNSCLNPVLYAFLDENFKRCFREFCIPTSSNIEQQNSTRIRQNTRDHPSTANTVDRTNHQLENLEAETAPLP

Biological target: Mu-type opioid receptor (Homo sapiens, UniProt P35372)
Test: Binding affinity to MOR (unknown origin)

C[C@@H](NC(=O)[C@@H](N)Cc1ccc(O)cc1)C(=O)NCC(=O)N[C@@H](Cc1ccccc1)C(=O)NNC(=O)[C@H](Cc1ccccc1)NC(=O)CNC(=O)[C@@H](C)NC(=O)[C@@H](N)Cc1ccc(O)cc1 [BIPHALIN]
Ki: 12 nM
